One molecule from article PMC3817851, “Enzyme activity effects of N-terminal His-tag attached to catalytic sub-unit of phosphoinositide-3-kinase” (Bioscience Reports, 2013) can be followed below.

Amino acid sequences for entries named in this document (tags omitted). A change or cut given only in a name is not applied to a line headed by its entry.
UniProt P42338: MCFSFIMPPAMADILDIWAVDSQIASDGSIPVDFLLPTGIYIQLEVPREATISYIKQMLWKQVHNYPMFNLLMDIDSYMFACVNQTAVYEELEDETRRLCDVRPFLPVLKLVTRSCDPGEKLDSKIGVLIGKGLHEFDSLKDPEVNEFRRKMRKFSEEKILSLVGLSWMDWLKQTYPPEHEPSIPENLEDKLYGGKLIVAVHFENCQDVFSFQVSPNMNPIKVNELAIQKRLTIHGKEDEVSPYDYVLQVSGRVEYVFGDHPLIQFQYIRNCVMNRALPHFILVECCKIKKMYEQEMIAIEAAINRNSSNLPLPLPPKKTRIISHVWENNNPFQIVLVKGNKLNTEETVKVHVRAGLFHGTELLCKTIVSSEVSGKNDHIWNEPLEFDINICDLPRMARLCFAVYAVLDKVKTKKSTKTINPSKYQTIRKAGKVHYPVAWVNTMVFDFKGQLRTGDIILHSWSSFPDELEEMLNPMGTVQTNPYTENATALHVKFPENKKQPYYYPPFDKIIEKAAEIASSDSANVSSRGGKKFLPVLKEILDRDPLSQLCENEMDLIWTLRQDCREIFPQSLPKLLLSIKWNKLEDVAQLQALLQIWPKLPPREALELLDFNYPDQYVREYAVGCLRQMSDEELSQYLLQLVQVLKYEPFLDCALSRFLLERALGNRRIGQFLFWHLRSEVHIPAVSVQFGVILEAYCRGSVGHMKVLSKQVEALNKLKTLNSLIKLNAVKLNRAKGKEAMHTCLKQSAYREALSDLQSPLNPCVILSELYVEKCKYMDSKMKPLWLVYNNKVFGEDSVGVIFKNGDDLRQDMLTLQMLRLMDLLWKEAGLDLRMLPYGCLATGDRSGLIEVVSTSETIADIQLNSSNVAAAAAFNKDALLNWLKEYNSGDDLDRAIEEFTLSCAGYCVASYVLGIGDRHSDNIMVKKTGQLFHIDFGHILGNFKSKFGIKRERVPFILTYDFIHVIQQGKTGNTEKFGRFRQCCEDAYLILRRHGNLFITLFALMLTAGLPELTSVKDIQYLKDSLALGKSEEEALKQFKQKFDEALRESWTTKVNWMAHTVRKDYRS

The assay deals with T1, p110β (PI 3-Kβ, p110β/p85α) (Homo sapiens, UniProt P42338).
T1 construct: gene PIK3CB; full-length p110β with N-His6-rTEV tag (tag removed by rTEV) co-expressed with full-length p85α; baculovirus/Sf9; IMAC, MonoQ; heterodimer; with Phosphatidylinositol 3-kinase regulatory subunit alpha
The assay is described as follows: HTRF lipid kinase assay. In kind it is biochemical. The conditions noted are these: […] ATP, PI([…])P2 substrate, His-tag removed. From the text:
HTRF lipid kinase assay on p110β (PI 3-Kβ, p110β/p85α)
For orientation: TR-FRET usually uses a lanthanide donor and a delayed reading to cut background.

pIC50: −log10 of the molar value.

Consider `Cc1cc(C(C)Nc2ccccc2)c2nc(N3CCOCC3)cc(=O)n2c1` (stereo not shown) [TGX-221], for which the pIC50 was 7.96.

The pIC50 is −log10 of the IC50, conventionally taken in molar units. A higher pIC50 goes with a low IC50.
